# Source: PubChem (several laboratories)
# ARFGAP1 inh: inhibits rat ARF GTPase activating protein 1; Q62848; inhibition, % at 16.5 µM; Arfgap1-stimulated ARF1 GTP hydrolysis, GDP FP detection; AID 651572; 360,000 tested, 0.26% active;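 active = inhibition above a per-plate limit, mean inhibition of low control wells plus 3 SD, cut at about 25% in these data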;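 note: 0% = DMSO wells with enzyme and 100% = wells lacking Arfgap1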
#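 Material: truncated rat Arfgap1 GAP domain; Incubation: compound-enzyme preincubation 20 min, reaction 120 min, detection 60 min, 25 °C; Read-out: percent inhibition of Arfgap1-stimulated GTP hydrolysis; Technique: FP, GDP Alexa 633 tracer displaced from anti-GDP antibody, 620/688 nm; Controls: No-Arfgap1 wells (100%) versus DMSO full-reaction wells (0%); Replication: single well per compound.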
# MC4R antag cAMP: blocks human MC4R cAMP signaling. P32245. MC4R-expressing cells, MTII-stimulated cAMP, LANCE TR-FRET. inhibition, % at 6.5 µM. 360,000 tested, 0.48% active. AID 540295;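 active = inhibition above its plate's cutoff, the mean of tested wells on that plate plus 3 SD, cut at about 29% in these data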;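 note: 0% = Melanotan II alone and 100% = Melanotan II plus saturating MCL0020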
#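 Material – human MC4R-expressing U2OS cells · Repeats – no replicates · Detection – TR-FRET with Eu-cAMP and labeled anti-cAMP, 671 nm · Times – compound 30 min, challenge 1 h, detection 1 h · Compound – single nominal compound dose of 6.5 µM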
# UUG fidelity: yeast start codon fidelity modulation; activity score, % at 18.7 µM; actives 0.13% (n = 350,000); S. cerevisiae UUG-firefly luciferase reporter, luminescence/redox ratio; AID 602363;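 active means replicate mean at a twofold rise or more, about +100% in these data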;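 further: firefly luciferase made from a UUG start codon reports start codon fidelity; reporter light over untreated wells divided by growth signal over untreated wells; some hits fall short of that in this replicate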
# NRP1-CendR mod: alters CendR peptide binding to human NRP-1 | 360,000 tested, 0.85% active | inhibition, % at 25 µM | O14786 | FAM-RPARPAR peptide binding to NRP-1, fluorescence polarization;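 active = inhibition or corrected inhibition above about 18%, plus a signal ratio from 0.5 to 1.5, limit read from the data, passing the limit was not always enough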
# MC4R ag barr: human MC4R agonism via beta-arrestin | P32245 | U2OS MC4R beta-arrestin complementation, luminescence; percent of melanotan II response, DMSO zero | activation, % at 8.9 µM | 360,000 tested, 0.98% active;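 active = activation above a per-plate cutoff, the mean activation of sample wells on that plate plus 3 SD, cut at about 8% in these data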
# ASAP1 inh: inhibitors of human ASAP1 ArfGAP activity; inhibition, % at 16.5 µM; ASAP1-stimulated ARF1 GTP hydrolysis, GDP FP detection; 360,000 tested, 0.19% active; AID 624377; in the data active = inhibition above about 25%;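 note: 0% = vehicle with enzyme and substrate and 100% = no enzyme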
# Active calls of the source: *; · = no result. Hits are enriched below; roughly 2.3% of the tested compounds scored in any of these assays.
SMILES,ARFGAP1 inh,MC4R antag cAMP,UUG fidelity,NRP1-CendR mod,MC4R ag barr,ASAP1 inh
C[C@@H](NC(=O)c1[nH]cnc1C(=O)Nc1cccc(Cl)c1)c1ccccc1,7.0,9.4,-9.7,26.5*,4.4,13.8
CCN(CC)C(=O)c1[nH]cnc1C(=O)Nc1cccc(C)c1,13.4,3.0,-4.7,26.6*,-0.5,5.9
C[C@@H](NC(=O)c1[nH]cnc1C(=O)Nc1ccccc1)c1ccccc1,6.3,9.5,-11.8,9.0,-0.2,9.6
CC(C)(C)OC(=O)[C@H](Cc1ccccc1)NC(=O)c1[nH]cnc1C(=O)Nc1cccc(Cl)c1,20.5,-2.2,1.4,23.3*,-1.9,0.5
C[C@H](NC(=O)c1[nH]cnc1C(=O)Nc1cccc(Cl)c1)c1ccccc1,2.2,4.7,-17.2,1.8,3.0,-3.4
Cc1ccc(NC(=O)c2nc[nH]c2C(=O)N[C@@H](C)c2ccccc2)cc1,17.2,5.7,-12.9,31.6*,-2.7,-8.4
COCC(=O)Nc1ccc2c(c1)OC[C@@H](C)N(C(=O)c1ccncc1)C[C@@H](C)[C@H](OC)CN(C)C2=O,·,·,-5.8,·,·,·
C[C@@H](NC(=O)c1[nH]cnc1C(=O)Nc1ccc(Cl)cc1)c1ccccc1,12.9,0.9,-12.1,16.9,0.4,15.5
C[C@H](NC(=O)c1[nH]cnc1C(=O)Nc1ccc(Cl)cc1)c1ccccc1,13.5,3.9,0.1,37.0*,1.9,-3.1
C[C@H](CO)N1C[C@H](C)[C@@H](CN(C)S(=O)(=O)c2cn(C)cn2)OCCCC[C@H](C)Oc2ccc(NC(=O)CCC(F)(F)F)cc2C1=O,·,·,10.1,·,·,·
CCCCN(CCCC)c1ncnc2nc[nH]c12,12.1,-2.0,·,22.1*,4.6,10.9
CO[C@H]1CN(C)C(=O)c2cc(NC(=O)C3CCC3)ccc2OC[C@@H](C)N(Cc2ccncc2)C[C@H]1C,·,·,2.7,·,·,·
COc1cccc(CN2CCN(Cc3ccco3)CC2)c1,4.2,0.7,-1.5,21.5*,-1.3,5.8
O=C(C[C@@H]1C[C@@H]2c3cc(NS(=O)(=O)c4ccc(F)cc4)ccc3O[C@@H]2[C@H](CO)O1)NCC1CC1,·,·,-14.6,·,·,·
Cc1ccccc1N=C(N)Nc1ccccc1C,-10.5,0.7,-6.7,37.4*,-0.1,-10.8
COc1ccc(NC(=O)N(C)C[C@H]2Oc3c(NS(=O)(=O)c4ccc(F)cc4)cccc3C(=O)N([C@H](C)CO)C[C@H]2C)cc1,·,·,0.3,·,·,·
C[C@@H]1CN([C@@H](C)CO)C(=O)c2cccc(NC(=O)Nc3cccc4ccccc34)c2O[C@H]1CN(C)C(=O)Nc1ccc(F)cc1,·,·,-2.1,·,·,·
O=C1NC[C@@H](CCCCN2C[C@H](Cc3ccccc3)N(CCc3ccc(O)cc3)C(=O)C2=O)N(Cc2ccccc2)C1=O,-5.0,·,·,18.4*,·,-2.3
O=C1NC[C@H](CCCCN2C[C@H](Cc3ccc(O)cc3)N(Cc3ccccc3)C(=O)C2=O)N(CCc2ccccc2)C1=O,-2.5,·,·,17.1,·,8.8
COc1ccc(CC(=O)NNC(=O)c2ccc(SCc3cc(F)ccc3F)c([N+](=O)[O-])c2)cc1,-1.2,4.2,-7.9,-2.8,9.0*,-1.9

# Structures above with fluorine:
SMILES,ARFGAP1 inh,MC4R antag cAMP,UUG fidelity,NRP1-CendR mod,MC4R ag barr,ASAP1 inh
C[C@H](CO)N1C[C@H](C)[C@@H](CN(C)S(=O)(=O)c2cn(C)cn2)OCCCC[C@H](C)Oc2ccc(NC(=O)CCC(F)(F)F)cc2C1=O,·,·,10.1,·,·,·
O=C(C[C@@H]1C[C@@H]2c3cc(NS(=O)(=O)c4ccc(F)cc4)ccc3O[C@@H]2[C@H](CO)O1)NCC1CC1,·,·,-14.6,·,·,·
COc1ccc(NC(=O)N(C)C[C@H]2Oc3c(NS(=O)(=O)c4ccc(F)cc4)cccc3C(=O)N([C@H](C)CO)C[C@H]2C)cc1,·,·,0.3,·,·,·
C[C@@H]1CN([C@@H](C)CO)C(=O)c2cccc(NC(=O)Nc3cccc4ccccc34)c2O[C@H]1CN(C)C(=O)Nc1ccc(F)cc1,·,·,-2.1,·,·,·
COc1ccc(CC(=O)NNC(=O)c2ccc(SCc3cc(F)ccc3F)c([N+](=O)[O-])c2)cc1,-1.2,4.2,-7.9,-2.8,9.0*,-1.9

# The results go on.
SMILES,ARFGAP1 inh,MC4R antag cAMP,UUG fidelity,NRP1-CendR mod,MC4R ag barr,ASAP1 inh
C[C@H]1CCCCO[C@H](CN(C)S(=O)(=O)c2cccs2)[C@@H](C)CN([C@@H](C)CO)C(=O)c2cc(NC(=O)Nc3ccccc3)ccc2O1,·,·,-11.9,·,·,·
CCN1C(=O)N(CC)C(O)(c2ccccc2)C1(O)c1ccccc1 (centres undefined),-1.2,4.5,16.0,30.1*,1.5,-3.2
CCN1C(=O)N(C)C2(c3ccccc3)N(C)C(=O)N(C)C12c1ccccc1 (centres undefined),-2.5,0.2,8.0,11.2,-2.3,1.2
Cc1onc(-c2ccccc2Cl)c1C(=O)Oc1cc(N)n(S(=O)(=O)c2ccc(F)cc2)n1,2.6,28.8*,-17.4,6.8,0.9,7.1
COc1ccc(S(=O)(=O)NC(C)C(=O)N2CCCC2)cc1C (centres undefined),-0.6,2.5,5.4,4.9,-1.5,7.6
COc1ccc(S(=O)(=O)NC2CC2)cc1Br,-8.5,-7.9,-13.9,27.1*,0.7,6.6
COc1ccc(S(=O)(=O)NC(C)C(=O)NC2CC2)cc1C (centres undefined),9.9,-0.6,-13.1,28.2*,-0.8,2.5
CN1c2ccc(C#Cc3cccnc3)cc2[C@@H]2[C@@H](CCN2S(=O)(=O)c2ccccc2F)[C@@H]1CO,·,·,9.1,·,·,·
C[C@@H]1CN([C@@H](C)CO)C(=O)c2cc(N(C)C)ccc2O[C@@H](C)CCCCO[C@@H]1CN(C)S(=O)(=O)c1ccccc1,·,·,12.3,·,·,·
O=C(O)c1ccc(Nc2nc(-c3ccccc3)cs2)cc1,-3.0,25.5,·,5.7,-0.5,2.8
c1ccc(-c2csc(Nc3ccc4c(c3)OCO4)n2)cc1,8.6,·,-26.3,24.5*,·,9.4
C[C@H]1O[C@@H](O[C@H]2[C@@H](O)C[C@H](O[C@H]3[C@@H](O)C[C@H](O[C@H]4CC[C@@]5(C)[C@H](CC[C@@H]6[C@@H]5C[C@@H](O)[C@]5(C)[C@@H](C7=CC(=O)OC7)CC[C@]65O)C4)O[C@@H]3C)O[C@@H]2C)C[C@H](O)[C@@H]1O,8.7,7.2,-3.6,-0.2,38.6*,4.3
COc1ccc(C(=O)N2N=C(c3cccs3)CC2c2ccccc2O)cc1 (centres undefined),10.5,5.4,-5.6,-8.7,11.7*,1.6
CCCCCOC(=O)CCN1C(=O)/C(=C2\SC(=S)N(CCC(=O)OCCCCC)C2=O)SC1=S,5.9,10.1,-9.0,6.6,0.3,-10.7
CCCCOC(=O)CCN1C(=O)/C(=C2\SC(=S)N(CCC(=O)OCCCC)C2=O)SC1=S,-0.4,-2.1,1.0,27.7*,1.4,12.0
Cc1nn(C(=O)CNS(=O)(=O)c2ccccc2)c(C)c1Sc1ccc(Cl)cc1,-2.9,8.5,·,1.4,8.9*,-0.9
C[C@@H]1CN([C@@H](C)CO)C(=O)Cc2cc(NC(=O)CCN3CCOCC3)ccc2O[C@H]1CN(C)Cc1ccc(Oc2ccccc2)cc1,·,·,4.2,·,·,·
C[C@@H](NC(=O)C[C@H]1C[C@@H]2c3cc(NC(=O)NC4CCCC4)ccc3O[C@@H]2[C@H](CO)O1)c1ccccc1,·,·,19.6,·,·,·
Cc1ccc(O)c(C(=O)c2cnc3c(c2)COc2ccccc2-3)c1,5.4,6.3,7.8,26.1*,1.2,-5.6
O=C(c1cccnc1)N1C[C@@H]2[C@H](c3ccccc31)[C@H](CO)N2C(=O)CN1CCOCC1,·,·,20.0,·,·,·
N#Cc1ccc(OCc2nnc(SCC(=O)c3ccccc3)n2-c2ccccc2)cc1,17.9,-3.5,-2.6,30.7*,3.7,-2.0
Cc1cccc(-n2c(CCc3ccccc3)nnc2SCC(=O)c2ccccc2)c1,-11.5,7.4,-5.2,2.2,8.3*,2.5
